Measurements as given in PMC9855077, “Antioxidant and Anti-Inflammatory Effects of 6,3’,4´- and 7,3´,4´-Trihydroxyflavone on 2D and 3D RAW264.7 Models” (Antioxidants, 2023).

Amino acid sequences for entries named in this document (tags omitted). A change or cut given only in a name is not applied to a line headed by its entry.
UniProt P12931: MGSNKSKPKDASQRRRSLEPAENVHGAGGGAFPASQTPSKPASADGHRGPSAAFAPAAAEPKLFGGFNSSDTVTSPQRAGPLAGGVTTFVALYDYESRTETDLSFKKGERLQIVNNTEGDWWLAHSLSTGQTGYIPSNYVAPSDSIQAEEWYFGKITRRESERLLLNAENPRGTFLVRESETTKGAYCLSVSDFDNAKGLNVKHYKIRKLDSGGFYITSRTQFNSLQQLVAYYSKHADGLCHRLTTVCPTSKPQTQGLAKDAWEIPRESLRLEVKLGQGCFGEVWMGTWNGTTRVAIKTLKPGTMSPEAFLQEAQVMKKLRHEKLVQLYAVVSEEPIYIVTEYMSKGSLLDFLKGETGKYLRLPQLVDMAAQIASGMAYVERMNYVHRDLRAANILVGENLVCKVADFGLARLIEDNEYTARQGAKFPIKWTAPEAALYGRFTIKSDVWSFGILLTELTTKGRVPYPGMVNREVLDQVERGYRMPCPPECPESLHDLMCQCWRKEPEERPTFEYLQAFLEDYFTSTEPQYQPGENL

Biological target: human c-Src (Homo sapiens, UniProt P12931)
Experiment: biochemical

Row | Compound | IC50 [µM]
1 | O=c1cc(-c2ccc(O)c(O)c2)oc2ccc(O)cc12 [6,3´,4´-HOFL] | 12
2 | O=c1cc(-c2ccc(O)c(O)c2)oc2cc(O)ccc12 [7,3´,4´-HOFL] | 20.9
